Experimental data from PubChem BioAssay (Tox21).
Several values for one entry are separate records, joined by “and”; a condition that tells them apart may be missing. Entries that show only a call come without a potency. Identical values can stand only once. This is a selection; strong and weak results do not stand in their true shares. Records with an inconclusive call do not appear. Activity calls are given as the source filed them. Calls come from the whole dose curve; as a rule, active = well fitted cell-killing curve with a large enough effect in the repeat runs; inconclusive = weak or mixed curves, or effect the other way; inactive = no such curve, though single readings can be large or run the other way.

Experiment: qHTS assay for identifying genotoxic compounds that show differential cytotoxicity against isogenic chicken DT40 cell lines with known DNA damage response pathways - wild type cell line (AID 743012); note: nearly all actives have a fitted effect of over 60% in size
Details: DT40 wild type chicken cells viability, CellTiter-Glo, 40 h; series mostly up to 68.4 µM
Description: U.S. Tox21 Program National Center for Advancing Translational Sciences [NCATS] NIH Chemical Genomics Center [NCGC] U.S. Environmental Protection Agency [EPA] National Institutes of Environmental Health Sciences [NIEHS] National Toxicology Program [NTP] U.S. Food and Drug Administration [FDA] Tox21 Assay Overview: DNA repair pathways play a critical role in cellular homeostasis by repairing DNA damage induced by endogenous processes and xenobiotics. Isogenic chicken DT40 cell lines deficient in different DNA repair pathways can be used to identify genotoxic compounds and aid in characterizing the nature of the DNA damage induced. Two DNA repair-deficient cell lines with disrupted genes, Rad54/Ku70 or Rev3, were used to screen the Tox21 10K compound library. Possible genotoxicity was based on the presence of a significant increase in cytotoxicity in one or more of the DNA repair-deficient cell lines compared to that observed in the parental DNA repair-proficient cell line. CellTiter Glo viability assay (Promega, Madison, WI) was used to measure cell viability in these cells after compound treatment. This assay includes the data from the wild type cell line.
Tox21 Assay Protocol Summary: 300 DT40 wild type cells in 5 uL/well were dispensed into white, solid-bottom 1536-well plates using a Multidrop Combi (ThermoFisher Scientific, Waltham, MA) dispenser. After the assay plates were incubated at 37 C/5% CO2 for approximately 0.5 hour, 23 nL of compounds dissolved in DMSO, positive controls or DMSO only was transferred into the assay plate by a pintool work station (Kalypsys, San Diego, CA). The assay plates were incubated at 37 C/5% CO2 for 40 hours. After 5 uL per well of CellTiter-Glo reagent was added into each well of the assay plates, the plates were incubated for 30 min at room temperature and the luminescence intensity of the plates was measured using a ViewLux (PerkinElmer, Shelton, CT) plate reader.
Potency is the fitted concentration of half-maximal effect.

Row | SMILES | Potency
1 | CN(N=O)C(=N)N[N+](=O)[O-] | active: 27.1 µM
2 | NC(=O)Nc1ccc([As](=O)(O)O)cc1 | inactive
3 | COP(=S)(Cl)OC | inactive
4 | CN(C(=O)Cc1ccc(Cl)c(Cl)c1)[C@H]1CC[C@@]2(CCCO2)C[C@@H]1N1CCCC1 | active: 16.8 µM
5 | O=[p+]1oc2ccccc2c2ccccc21 (stereo not drawn) | inactive
6 | CCOC(=O)Cl | inactive
7 | COC(=O)Cl | inactive
8 | O=[P+](Oc1ccccc1)Oc1ccccc1 | inactive
9 | CCCCO[P+](=O)OCCCC | inactive
10 | CC(C)OP(=S)(OC(C)C)SCCNS(=O)(=O)c1ccccc1 | active: 12.2 µM
11 | O=[As]c1ccccc1 (stereo not drawn) | active: 0.0686 µM
12 | O=C(OC1CN2CCC1CC2)c1ccccc1 (stereo not drawn) | inactive
13 | CC(C)CCCCCCCOP(OCCCCCCCC(C)C)Oc1ccccc1 | inactive
14 | ClP(Cl)c1ccccc1 | inactive
15 | O=C1C2CC=CCC2C(=O)N1SC(Cl)(Cl)C(Cl)Cl (stereo not drawn) | active: 27.5 nM and active: 1.7 nM
16 | CCOP(=S)(CC)Sc1ccccc1 (stereo not drawn) | inactive
17 | O=P(Cl)(Cl)c1ccccc1 | inactive
18 | N#CSc1ccc([N+](=O)[O-])cc1[N+](=O)[O-] | active: 1.22 µM
